Source: PubChem BioAssay AID873 (PCMD, 2007)
Several values for one entry are separate records, joined by “and”; a condition that tells them apart may be missing. Identical values can stand only once. Only a part is listed here, and it is no random draw. Activity calls are given as the source filed them.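 The calls were made as follows: active = inhibition of 40% or more; inactive = the rest.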

Protein sequences, listed by entry. Tags and fused reporters are not part of them.
UniProt Q9Y337, whole entry, looked up: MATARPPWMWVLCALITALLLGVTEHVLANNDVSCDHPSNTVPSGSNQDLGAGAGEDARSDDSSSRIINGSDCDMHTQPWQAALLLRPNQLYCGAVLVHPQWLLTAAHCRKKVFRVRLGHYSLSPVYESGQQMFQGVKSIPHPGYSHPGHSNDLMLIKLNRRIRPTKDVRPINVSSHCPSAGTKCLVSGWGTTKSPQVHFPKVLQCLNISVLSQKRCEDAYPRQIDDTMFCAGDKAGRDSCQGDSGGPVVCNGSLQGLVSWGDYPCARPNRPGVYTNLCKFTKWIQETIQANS

Molecular target: Kallikrein-5 (Homo sapiens) (UniProt Q9Y337)
Test: inhibition of kallikrein 5 (hK5) activity – biochemical, 1536-well, primary screen (AID 873);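 also: 0% = enzyme controls without compound and 100% = no-enzyme blanks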
Conditions: recombinant hK5, fluorogenic AMC substrate cleavage; at 5 µM; stronger effect = higher value

Row | Structure (SMILES) | inhibition
1 | O=[As](O)(c1ccccc1Br)c1ccccc1Br | inactive: -1.02%
2 | CC(C)/C=N\N=C(\N)N[N+](=O)[O-] | inactive: -3.7%
3 | CCOP(=O)(Nc1ccc(C)cn1)OCC | inactive: 0.2%
4 | O=P1(Nc2ccccn2)COc2ccccc2OC1 | inactive: -1.82%
5 | CC(C)(C)C(=O)NC(Sc1ncccn1)C(Cl)(Cl)Cl (stereo not drawn) | inactive: 0.15%
6 | Clc1n[nH]nc1-c1nn[nH][15n]1 | inactive: 2.42%
7 | O=P1(Nc2ncccn2)COc2ccccc2OC1 | inactive: -15%
8 | O=P1(Nc2ccc(Br)cn2)COc2ccccc2OC1 | inactive: -50%
9 | O=[As](O)(c1cccs1)c1cccs1 | inactive: -0.68%
10 | Cc1ccc(OCC(=O)OC2CN3CCC2CC3)cc1 (stereo not drawn) | inactive: -23.4%
11 | Nc1cccc([As](=O)(O)c2ccccc2)c1 | inactive: -1.53%
12 | CC1CCC(C(C)C)C(OP(=O)(Nc2ccccn2)c2ccccc2)C1 (stereo not drawn) | inactive: 14.1%
13 | Cc1nn(-c2ccccc2)c2c1P(=O)(N1CCOCC1)N(C)C(c1ccccc1)=N2 (stereo not drawn) | inactive: 3.25%
14 | O=C(/C=C/c1ccccc1)OC1CN2CCC1CC2 (stereo not drawn) | inactive: 3.14%
15 | CN(C)C1(CNC(=O)c2ccc(S(C)(=O)=O)cc2)CCCCC1 | inactive: -6.07%
16 | NC(=O)Nc1ccc([As](=O)(O)O)cc1 | inactive: 0.11%
17 | O=[N+]([O-])c1ccc2c(c1)nnn2O | inactive: 0.95%
18 | CN(C(=O)Cc1ccccc1)[C@@H]1CC[C@]2(CCCO2)C[C@H]1N1CCCC1 | inactive: 2.72%
19 | CCOP1(=S)c2c(C)nn(CCC#N)c2N=C(c2ccc(F)cc2)N1C (stereo not drawn) | inactive: -20.2%
20 | CS(=O)(=O)c1cc([N+](=O)[O-])c2no[n+]([O-])c2c1 | inactive: -5.95%
21 | O=P(Nc1nccs1)(c1ccccc1)c1nc2ccccc2s1 (stereo not drawn) | inactive: 4.25%
22 | O=P(Nc1nccs1)(Oc1ccccc1)Oc1ccccc1 | inactive: -3.24%
23 | CCOP1(=S)c2c(C)nn(CCC#N)c2N=C(c2ccccc2F)N1C (stereo not drawn) | inactive: 2.95%
24 | Nc1ccccc1[As](=O)(O)c1ccccc1 | inactive: 1.12%
25 | O=C(O)COc1ccc([As](=O)(O)O)cc1[N+](=O)[O-] | inactive: -2.69%
26 | CCCOP(=S)(Nc1nc(N)cc(=O)[nH]1)OCCC | inactive: -2.12%

Row | Structure (SMILES) | inhibition
27 | Nc1cccc2c([As](=O)(O)O)cccc12 | inactive: -5.78%
28 | Cc1ccc(NCCc2c([N+](=O)[O-])cc([N+](=O)[O-])cc2[N+](=O)[O-])cc1 | inactive: -5.12%
29 | CCOP(=O)(Nc1cccc2ccccc12)OCC | inactive: -9.51%
30 | COc1cc(C2NCCC3(OCCO3)C2(C)C)cc(OC)c1OC (stereo not drawn) | inactive: -9.85%
31 | COc1cc(C(=O)NCC2(N3CCOCC3)CCCCC2)cc(Cl)c1OC(C)C | inactive: -1.88%
32 | O=[As](O)(O)c1cccnc1 | inactive: 5.52%
33 | O=C(OC1CN2CCC1CC2)c1ccc(Cl)cc1 (stereo not drawn) | inactive: -0.62%
34 | O=[As](O)(c1cccc(O)c1)c1cccc(O)c1 | inactive: -4.26%
35 | Cc1cccc(OCC(=O)OC2CN3CCC2CC3)c1 (stereo not drawn) | inactive: -13.3%
36 | COc1ccc(N/C(=N/P(=O)(N2CCOCC2)N2CCOCC2)N2CCOCC2)cc1 | inactive: -0.87%
37 | Cc1cc(=O)[nH]c(N[N+](=O)[O-])n1 | inactive: -3.2%
38 | O=C(OC1CN2CCC1CC2)C12CC3CC(CC(C3)C1)C2 (stereo not drawn) | inactive: -1.44%
39 | Cc1c2c(nc3ccccc13)SC(C(Cl)Cl)C2 (stereo not drawn) | inactive: -14.9%
40 | COc1cc(I)ccc1[As](=O)(O)O | inactive: -3.46%
41 | COc1ccc2nc(NP(=O)(c3ccccc3)c3ccccc3)sc2c1 | inactive: -3.64%
42 | CC(C)c1ccc(OP(=O)(Nc2ccccn2)Oc2ccccc2F)cc1 (stereo not drawn) | inactive: -2.46%
43 | ClCCSc1nnc(-c2cccnc2)o1 | inactive: -5.89%
44 | O=[N+]([O-])c1cc([N+](=O)[O-])c(-c2ccn[nH]2)s1 | inactive: -10.7%
45 | CCN(CC)C(=S)SC(NC=O)C(Cl)(Cl)Cl (stereo not drawn) | inactive: -0.38%
46 | CC(C)NC(=O)NP(=O)(Oc1ccccc1)Oc1ccccc1 | inactive: 1.08%
47 | C[As](=O)(O)c1cccc(C(=O)O)c1 | inactive: 0.63%
48 | O=[As](O)(c1ccc(O)cc1)c1ccccc1O | inactive: 11.7%
49 | Cc1ccc2nc3c(c(C)c2c1)CC(C(Cl)Cl)S3 (stereo not drawn) | inactive: 4.09%
50 | Cc1ccc(OP(=O)(Nc2ccc([N+](=O)[O-])cn2)Oc2ccc(C)cc2)cc1 | inactive: 23%
51 | CCOC(=O)Nc1cccc([As](=O)(O)O)c1 | inactive: 14.8%
52 | O=[N+]([O-])c1ccc(Nc2ccc(Oc3ccc([N+](=O)[O-])cc3[N+](=O)[O-])cc2)c([N+](=O)[O-])c1 | inactive: -5.43%

Row | Structure (SMILES) | inhibition
53 | O=P(Nc1ccccn1)(c1cccc2ccccc12)c1cccc2ccccc12 | inactive: -20.4%
54 | Cc1cc(SC(NC=O)C(Cl)(Cl)Cl)ncn1 (stereo not drawn) | inactive: 2.93%
55 | CCOC(=O)Nc1ccc([As](=O)(O)O)c(O)c1 | inactive: 5.86%
56 | Cc1cc(SC(NC(=O)c2ccccc2)C(Cl)(Cl)Cl)nc(C(C)C)n1 (stereo not drawn) | inactive: -0.42%
57 | CCOC(=O)c1ccc(NC(=O)C(C)(CCl)SC)cc1 (stereo not drawn) | inactive: 1.68%
58 | CCC(C)N(CC(C)C)C(=S)SC(NC(C)=O)C(Cl)(Cl)Cl (stereo not drawn) | inactive: 4.2%
59 | COP1(=S)c2c(C)nn(CCC#N)c2N=C(c2ccc(F)cc2)N1C (stereo not drawn) | inactive: 6.85%
60 | O=C(COc1ccccc1)OC1CN2CCC1CC2 (stereo not drawn) | inactive: 0.45%
61 | C[N+]1=C2C=CC=CC=C2SC12C([N+](=O)[O-])=CC([N+](=O)[O-])=C[C-]2[N+](=O)[O-] (stereo not drawn) | inactive: 4.31%
62 | Nc1ccc([As](=O)(O)c2ccc(N)cc2)cc1 | inactive: 5.67%
63 | CCN(/C(=N/P(=O)(N1CCOCC1)N1CCOCC1)N1CCOCC1)c1ccc(OC)cc1 | inactive: -3.58%
64 | CN(C)C(=O)OCCc1n(C)cc[n+]1C | inactive: -13.4%
65 | CC(C)=N/N=C(\N)N[N+](=O)[O-] | inactive: -1.41%
66 | CC1CCN(C(=O)Oc2c(Cl)cc(Cl)c3cccnc23)CC1 | inactive: -0.98%
67 | COc1ccc(C2=NCC(CBr)S2)cc1 (stereo not drawn) | inactive: 2.07%
68 | O=[N+]([O-])c1cccc2n[nH]nc12 | inactive: -1.38%
69 | CC(=O)N1C2C3N(C(C)=O)C1C1N(C(C)=O)C(C(N1C(C)=O)N3C(C)=O)N2C(C)=O | inactive: -5.17%
70 | CCc1nc2c(n1)c1c(non1O)c1c2no[n+]1[O-] | inactive: 0.35%
71 | O=[N+]([O-])c1cc([N+](=O)[O-])c(CCNc2ccccc2)c([N+](=O)[O-])c1 | inactive: -10.6%
72 | Cc1ccc(NP(=O)(Oc2ccccc2)Oc2ccccc2)nc1 | inactive: -6.22%
73 | CC(C)(C)C(=O)NC(Sc1ccncn1)C(Cl)(Cl)Cl (stereo not drawn) | inactive: -2%
74 | O=[N+]([O-])c1ncn(CCn2ncnc2[N+](=O)[O-])n1 | inactive: -1.2%
75 | O=[N+]([O-])c1cccc(NC2=NCC(CBr)S2)c1 (stereo not drawn) | inactive: 0.81%
76 | O=C(O)CNc1ccc([As](=O)(O)O)cc1 | inactive: -14.8%
77 | O=C(Nc1cc([As](=O)(O)O)ccc1O)c1ccccc1 | inactive: -11.7%
78 | CCN(N=Nc1nonc1N)c1nonc1N | inactive: -2.1%

Row | Structure (SMILES) | inhibition
79 | Nc1cccc2ccc([As](=O)(O)O)cc12 | inactive: -10.3%
80 | O=C(O)c1ccccc1[As](=O)(O)O | inactive: 3.02%
81 | CC(=O)Nc1ccc([As](=O)(O)O)cc1 | inactive: 3.42%
82 | O=P(Nc1nc2ccc(Cl)cc2s1)(c1ccccc1)c1ccccc1 | inactive: -21.2%
83 | Cc1ccc(NP(=O)(Oc2ccccc2F)Oc2ccccc2F)nc1 | inactive: 30.4%
84 | CCOP(=O)(Nc1ccccc1)OCC | inactive: -3.39% and inactive: -2.61%
85 | Cc1cc(SC(NC(=O)c2ccc(F)cc2)C(Cl)(Cl)Cl)ncn1 (stereo not drawn) | inactive: -5.82%
86 | CC(C)CC(=O)NC(Sc1ccc(Cl)cc1)C(Cl)(Cl)Cl (stereo not drawn) | inactive: -22.6%
87 | Nc1cc(N)c2nonc2c1[N+](=O)[O-] | inactive: 4.89%
88 | Cc1c2non([O-])c-2c(C)[n+](=O)[n+]1[O-] | inactive: 23.6%
89 | O=C(NC(Sc1ccncn1)C(Cl)(Cl)Cl)c1ccccc1 (stereo not drawn) | inactive: -6.67%
90 | Oc1ccccc1CNc1ccccn1 | inactive: 5.96%
91 | NC(=O)c1cc([N+](=O)[O-])cc([N+](=O)[O-])c1N | inactive: -5.62%
92 | Cc1ccc(N/C(=N/P(=O)(N2CCOCC2)N2CCOCC2)N2CCOCC2)cc1 | inactive: 1.6%
93 | Cc1ccc(OP(=O)(Nc2nccs2)Oc2ccc(C)cc2)cc1 | inactive: 2.87%
94 | COc1ccccc1OP(=O)(Nc1ccc(C)cn1)Oc1ccccc1OC | inactive: 0.64%
95 | Clc1ccc(Cl)c(NC2=NCC(CBr)S2)c1 (stereo not drawn) | inactive: 11.4%
96 | CN1CCCC(OC(=O)C(c2ccccc2)c2ccccc2)C1 (stereo not drawn) | inactive: -7.37%
97 | C[C@@H]1C=CCP(=O)(Oc2ccccc2)O1 (stereo partly drawn) | inactive: 0.06%
98 | C[C@H]1OP(=O)(Oc2ccccc2)C[C@@H]2O[C@@H]21 (stereo partly drawn) | inactive: -0.96%
99 | CC(=O)Nc1ccc(Oc2c([N+](=O)[O-])cc([N+](=O)[O-])cc2[N+](=O)[O-])cc1 | inactive: -4.95%
100 | CC(=O)Nc1ccc([As](=O)(O)O)c(O)c1 | inactive: -1.28%
101 | CCOc1ccc(C2=NCC(CBr)S2)cc1 (stereo not drawn) | inactive: -0.17%
102 | O=P1(Nc2nc3ccc(Cl)cc3s2)COc2ccccc2O1 (stereo not drawn) | inactive: -8.3%
103 | CC(C)(C)C(=O)NC(Sc1ccccc1)C(Cl)(Cl)Cl (stereo not drawn) | inactive: -11.8%
